Experimental data published in ChEMBL document CHEMBL4321874, “Discovery of a Novel, Highly Potent, and Selective Thieno[3,2-d]pyrimidinone-Based Cdc7 Inhibitor with a Quinuclidine Moiety (TAK-931) as an Orally Active Investigational Antitumor Agent” (J Med Chem, 2020).

By UniProt entry, the sequences of proteins in these tests, tags left out. Where a name states a change or a piece, a line headed by the entry shows the natural chain unless it says otherwise.
UniProt O00311: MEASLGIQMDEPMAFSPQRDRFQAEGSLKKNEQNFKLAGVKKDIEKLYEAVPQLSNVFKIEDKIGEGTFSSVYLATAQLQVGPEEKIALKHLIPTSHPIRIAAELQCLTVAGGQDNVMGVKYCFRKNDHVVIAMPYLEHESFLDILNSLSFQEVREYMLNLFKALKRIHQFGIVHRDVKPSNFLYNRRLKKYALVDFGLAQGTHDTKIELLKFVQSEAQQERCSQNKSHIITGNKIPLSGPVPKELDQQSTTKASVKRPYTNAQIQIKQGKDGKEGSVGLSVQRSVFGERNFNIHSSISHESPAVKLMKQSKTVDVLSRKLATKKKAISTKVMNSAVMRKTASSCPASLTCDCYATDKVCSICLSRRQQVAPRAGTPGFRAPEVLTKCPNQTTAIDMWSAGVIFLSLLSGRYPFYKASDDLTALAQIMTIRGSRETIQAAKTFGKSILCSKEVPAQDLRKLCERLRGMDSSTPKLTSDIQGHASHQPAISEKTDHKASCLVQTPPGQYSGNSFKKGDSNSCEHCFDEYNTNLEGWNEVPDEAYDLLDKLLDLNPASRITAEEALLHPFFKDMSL

What was measured:
Homo sapiens [1] = species: Homo sapiens; assay: Selectivity index, ratio of IC50 for N-terminal GST-tagged full-length human CDK2 (1 to 298 residues)/Cyclin E (1 to 410 residues) expressed in baculovirus expression system to IC50 for N-terminal GST-fused full-length human CDC7 (1 to 574 end residues)/DBF4 (1 to 674 residues) expressed in baculovirus expression system
Homo sapiens [2] = species: Homo sapiens; assay: Selectivity index, ratio of IC50 N-terminal GST-tagged human ROCK1 catalytic domain (1 to 477 residues) expressed in baculovirus expression system to IC50 for N-terminal GST-fused full-length human CDC7 (1 to 574 end residues)/DBF4 (1 to 674 residues) expressed in baculovirus expression system
[3] = biological target: T1, Cell division cycle 7-related protein kinase (Homo sapiens, UniProt O00311)
[4] = biological target: T1, Cell division cycle 7-related protein kinase; remark: listed apart in the source

Row | SMILES | Ratio IC50 (Homo sapiens [1]) | Ratio IC50 (Homo sapiens [2]) | Kdiss [4] [×10⁻⁴ /s] | Kdiss [3] [×10⁻⁴ /s]
1 | Cc1n[nH]cc1-c1cc2nc([C@H]3CC4CCN3CC4)[nH]c(=O)c2s1 | 10000 | 460 |  | 
2 | Cc1n[nH]cc1-c1cc2nc(C34CC(CN3)C4)[nH]c(=O)c2s1 | 17000 | 1400 |  | 
3 | Cc1n[nH]cc1-c1cc2nc([C@@H]3CC4CCN3CC4)[nH]c(=O)c2s1 [SIMUROSERTIB] | 24000 | 1700 |  | 6.3

The next lines start with results.

Row | Ratio IC50 (Homo sapiens [1]) | Ratio IC50 (Homo sapiens [2]) | Kdiss [4] [×10⁻⁴ /s] | SMILES | Kdiss [3] [×10⁻⁴ /s]
4 | 14000 | 200 | 4.94 | Cc1n[nH]cc1-c1cc2nc(CN3CCCC3)[nH]c(=O)c2s1 | 
5 | 22000 | 1200 |  | O=c1[nH]c([C@@H]2CCCCN2)nc2cc(-c3c[nH]nc3C(F)(F)F)sc12 | 
6 | 5300 | 410 |  | Cc1n[nH]cc1-c1cc2nc([C@H]3CCCCN3)[nH]c(=O)c2s1 | 
7 | 15000 | 950 | 6.3 | Cc1n[nH]cc1-c1cc2nc([C@@H]3CCCCN3)[nH]c(=O)c2s1 | 
